## Cyclic peptide permeability, from CycPeptMPDB

Values of Le Roux et al. 2020, doi:10.1021/acs.jmedchem.0c00013, as listed in CycPeptMPDB.

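The data file gives no further conditions (lipid, pH, time, direction or concentration), and values from different papers need not be comparable. The list need not hold all peptides of the study. Peptides that the database sets to -10, its floor, are left out.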

PAMPA measures passive passage through an artificial lipid membrane.
Caco-2: transport across a human colon carcinoma cell monolayer.
Permeability is in 10^-6 cm/s, converted from the database's log10 values; higher is more permeable.
Entries marked < or ≤ lay at or below the stated limit.

C[C@H]1NCCCCCCNC(=O)[C@H](Cc2ccc(O)cc2)NC(=O)[C@@H]2CCCN2C1=O is reported with PAMPA < 0.016 × 10^-6 cm/s. Listed for CC(C)C[C@@H]1C(=O)NCCCCCCN[C@@H](Cc2ccccc2)C(=O)N[C@@H](C)C(=O)N1C: PAMPA 25 × 10^-6 cm/s and Caco-2 350 × 10^-6 cm/s. Listed for CC(C)C[C@@H]1NC(=O)[C@H](Cc2ccccc2)NCCCCCCNC(=O)[C@H](C)NC1=O: PAMPA 32 × 10^-6 cm/s and Caco-2 15 × 10^-6 cm/s. For CC(C)C[C@H]1C(=O)NCCCCCCN[C@@H](Cc2ccccc2)C(=O)N(C)[C@H](C)C(=O)N1C the data give PAMPA 25 × 10^-6 cm/s and Caco-2 210 × 10^-6 cm/s. The entry for CC(C)C[C@H]1C(=O)N(C)CCCCCCN[C@@H](Cc2ccccc2)C(=O)N[C@H](C)C(=O)N1C lists PAMPA 32 × 10^-6 cm/s and Caco-2 63 × 10^-6 cm/s. The entry for CC(C)C[C@@H]1NC(=O)[C@H](C)NC(=O)[C@H](Cc2ccccc2)NCCCCCCCNC1=O lists PAMPA 25 × 10^-6 cm/s and Caco-2 69 × 10^-6 cm/s. The entry for CC(=O)N1CCCCCCNC(=O)[C@H](CC(C)C)NC(=O)[C@H](C)NC(=O)[C@@H]1Cc1ccccc1 lists PAMPA 7.9 × 10^-6 cm/s and Caco-2 12 × 10^-6 cm/s.

CC(C)C[C@@H]1NC(=O)[C@H](C)NC(=O)[C@H](Cc2ccccc2)NCCNC1=O has PAMPA 2.5 × 10^-6 cm/s and Caco-2 4.7 × 10^-6 cm/s. For CC(C)C[C@@H]1NC(=O)[C@H](C)N(C)C(=O)[C@H](Cc2ccccc2)NCCCCCCNC1=O the data give PAMPA 20 × 10^-6 cm/s and Caco-2 14 × 10^-6 cm/s. CC(C)C[C@@H]1NC(=O)[C@H](Cc2ccc(O)cc2)NC(=O)[C@H](C)NCCCCCCNC1=O is reported with PAMPA 0.2 × 10^-6 cm/s. The entry for CC(C)C[C@@H]1NC(=O)[C@H](C)NC(=O)[C@H](Cc2ccccc2)NCCCCCNC1=O lists PAMPA 25 × 10^-6 cm/s and Caco-2 19 × 10^-6 cm/s. O=C1NCCCCCCNCC(=O)N2CCC[C@H]2C(=O)N[C@H]1Cc1ccc(O)cc1 is reported with PAMPA < 0.016 × 10^-6 cm/s. For CC(C)C[C@@H]1NC(=O)[C@H](C)NC(=O)CN(Cc2ccccc2)CCCCCCNC1=O the data give PAMPA 40 × 10^-6 cm/s and Caco-2 74 × 10^-6 cm/s. For CC(C)C[C@@H]1NCCCCCCNC(=O)[C@H](Cc2ccccc2)NC(=O)[C@H](C)NC1=O the data give PAMPA 32 × 10^-6 cm/s and Caco-2 12 × 10^-6 cm/s.